Earlier results as cited in US8614182B2, “GLP-1 analogues and their pharmaceutical salts and uses” (Jiangsu Hansoh Pharmaceuticals Co., Ltd., priority 2009, dated 2013).

Conditions: cited from earlier work

Question: Which in vivo half-life does the source give for “glucose-dependent insulinotropic polypeptide [GIP]” here?
Answer: 5 to 7 min
